For the assay, the target named is Zn-NpuN, N-terminal Npu DnaE intein segment (cysteine-free) with the sensitivity-enhancing (zinc-binding) motif GDGHG at its N-terminus, coupled to SulfoLink resin (Nostoc punctiforme). Put plainly: cell-based or functional assay.

In the case of “NpuC^HN-MBP, C-terminal intein segment with serine to histidine mutation fused to maltose binding protein (from UniProt P0AEX9 27-392)”, the on-column C-terminal cleavage after shift to pH 6.2, 5 hours (SDS-PAGE) is more than 80%.

These data come from US20200024370A1.
